Test results from PubChem BioAssay AID463116 (University of Pittsburgh Molecular Library Screening Center, 2010).
The list shows a part of the results, in another mix than the full data. Results filed as inconclusive are left out. Activity calls are given as the source filed them.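 How the source made its calls: active means inhibition of receptor movement into the nucleus at or above a set limit in both runs, with normal cell brightness and cell count; inconclusive means limit reached in only one run, brightness and count normal; inactive means the rest.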

Experiment: blockers of dexamethasone-driven GR-EGFP nuclear import – imaging, high-content imaging, GR-EGFP cells, confirmation (AID 463116);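 further: dexamethasone at 1 µM final in well for 30 min; nuclear minus cytoplasmic GR-EGFP mean intensity difference in channel 2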
Settings: 3617.4 GR-EGFP nuclear translocation imaging, dexamethasone-induced; at 20 µM; stronger effect = higher value

SMILES | inhibition
Cc1c2non([O-])c-2c(C)[n+](=O)[n+]1[O-] | active: 60.5%
O=c1c2cc([N+](=O)[O-])ccc2[nH]c2c([N+](=O)[O-])cc([N+](=O)[O-])cc12 | inactive: 20.2%
